Measured values taken from patent publication US20030100550A1, “Carboxamide diazepin derivatives, preparation method, use as medicines, pharmaceutical compositions and use thereof” (priority 2002, published 2003).

Chains of the proteins cited; added tags and fusions are not shown. Residues count along the entry.
UniProt P00784, 134-345 limits assumed: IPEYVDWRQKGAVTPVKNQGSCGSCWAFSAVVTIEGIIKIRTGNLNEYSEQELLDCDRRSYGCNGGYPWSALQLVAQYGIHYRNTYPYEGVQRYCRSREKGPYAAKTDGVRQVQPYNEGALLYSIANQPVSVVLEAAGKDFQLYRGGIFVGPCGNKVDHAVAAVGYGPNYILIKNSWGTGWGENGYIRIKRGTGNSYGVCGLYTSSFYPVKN
UniProt P43235, 115-329 limits assumed: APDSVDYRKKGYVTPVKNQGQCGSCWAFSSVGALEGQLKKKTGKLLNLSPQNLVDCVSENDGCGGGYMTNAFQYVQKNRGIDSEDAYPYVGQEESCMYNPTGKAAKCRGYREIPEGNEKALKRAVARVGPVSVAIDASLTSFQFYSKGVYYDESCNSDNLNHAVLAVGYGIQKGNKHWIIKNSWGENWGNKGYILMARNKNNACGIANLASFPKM

Experiments:
Cathepsin B = Cathepsin B (Homo sapiens, UniProt P07858); test: Study of Cathepsin B inhibition (fluorescence, Z-arg-arg-AMC); settings: printed beside 20 μM; meaning not explained
Description: (§1) The products to be tested (10 mM) are diluted to […] in DMSO and distributed into Nunc polystyrene 96 well plates at a rate of 2 μl per well. Column 12 of the plate is reserved for the controls and therefore receives […] of DMSO (without products) per well. The plates are stored at −80° C. and thawed on the day of the experiment.
(§2) The products are diluted to 50 μM by adding 38 μl of reaction buffer: sodium acetate 100 mM, EDTA 5 mM, DTT […] pH 5.5. The addition as well as all the operations by pipette are carried out with a CybiWell 96 tip pipette. After mixing the solutions, each product is transferred into 2 wells (duplicates) of a Greiner black 384 well plate at a rate of 10 μl per well. Two 96-well plates can therefore be tested in a 384-well plate.
(§3) A solution of substrate at 50 μM, Z-Val-arg-AMC (Calbiochem), is prepared in the reaction buffer. The substrate, is then distributed into all the wells of the 384-well plate (20 μl per well).
(§4) A solution of Cathepsin K at 12.5 ng/ml is prepared in the reaction buffer and distributed into all the wells of the 384-well plate (20 μl per well) except for the 16 wells serving as 100% inhibition controls (column 23 and 24, lines I to P) which receive 20 μl of enzyme-free buffer.
(§5) The plates are then incubated 2H at ambient temperature, then read on Fluoroskan (Labsystems): excitation 390 nm; emission 460 nm
(§6) The final concentrations of each of the reagents are: products 10 μM, substrate 20 μM, enzyme 5 ng/ml.
(§7) The % inhibition for each of the products is calculated by using points at 0 and 100% inhibition of each plate as references. The products presenting a significant inhibition are then retested on a range of concentrations from 50 to 0.5 μM to determine an IC50.
Study of Cathepsin B Inhibition:
(§8) Protocol identical to that of Cathepsin K except for:
Z-arg-arg-AMC substrate (Calbiochem), solution at 50 μM, final concentration 20 μM
Cathepsin B (Calbiochem), solution at 40 ng/ml, final concentration 16 ng/ml
Incubation for 1 hour at ambient temperature

Papain = Papain (Carica papaya, UniProt P00784); test: Study of Papain inhibition (fluorescence); format: biochemical; settings: for Papain, percentage in parentheses beside IC50 value (% inhibition): printed beside 20 μM, meaning not explained
Description: as §1, §2, §3, §4, §5, §6, §7
Study of Papain Inhibition:
as §8
Papain (Sigma), solution at 50 ng/ml, final concentration 20 ng/ml
Incubation for 30 minutes at ambient temperature

Cathepsin K = Cathepsin K (Homo sapiens, UniProt P43235); test: Study of Cathepsin K inhibition (fluorescence, Z-Val-arg-AMC); settings: for IC50: read-out: Cathepsin K IC50, substrate Z-Val-arg-AMC 20 μM, enzyme 5 ng/ml, 2H at ambient temperature; for Cathepsin K, percentage in parentheses beside IC50 value (% inhibition): printed beside 20 μM, meaning not explained
Description: Study of Cathepsin K Inhibition:
as §1, §2, §3, §4, §5, §6, §7

SMILES | Cathepsin B, percentage in parentheses beside IC50 value (% inhibition) (Cathepsin B) | Papain, percentage in parentheses beside IC50 value (% inhibition) (Papain) | IC50 (Cathepsin K) [µM] | Cathepsin K, percentage in parentheses beside IC50 value (% inhibition) (Cathepsin K) | IC50 (Papain; read-out: Papain IC50, enzyme 20 ng/ml, 30 minutes at ambient temperature) [µM]
C=CCOC(=O)CC[C@H](NC(=O)[C@@H]1CCCN2C(=O)CC[C@H](NC(=O)Nc3ccc(Oc4ccccc4)cc3)C(=O)N12)C(=O)CN1CCC(Cc2ccccc2)CC1 | 25% | 20 (20%) | 20 |  | 
C=CCOC(=O)CC[C@H](NC(=O)[C@@H]1CCCN2C(=O)CC[C@H](NC(=O)Nc3ccc(Oc4ccccc4)cc3)C(=O)N12)C(=O)COC(=O)CCCC(=O)OC |  | 18%) | 20 | 35% | 
CC(C)(C)Oc1ccc(C[C@H](NC(=O)[C@@H]2CCCN3C(=O)CC[C@H](NS(=O)(=O)c4ccc5ccccc5c4)C(=O)N23)C(=O)CSc2nnnn2-c2ccccc2)cc1 | 20 (20%) |  | 20 | 20 (20%) | 
CC(C)(C)Oc1ccc(C[C@H](NC(=O)[C@@H]2CCCN3C(=O)CC[C@H](NS(=O)(=O)c4ccc5ccccc5c4)C(=O)N23)C(=O)CSc2nc3ccccc3s2)cc1 | 20 (20%) |  |  |  | 
CC(C)(C)Oc1ccc(C[C@H](NC(=O)[C@@H]2CCCN3C(=O)CC[C@H](NC(=O)NCCc4cccs4)C(=O)N23)C(=O)CSc2nc3ccccc3s2)cc1 |  |  | 20 | 20 (20%) | 7
